Experimental findings from US8603990B2, “Grafted macromolecular conjugates of doxorubicin with anticancer activity and method of their preparation” (priority 2006, dated 2013) are described below.

The data set has as its system mouse T cellular lymphoma EL4. The settings on record: 1×15 mg/kg DOX equivalent i.v. on day 9. On the procedure: The in vivo experiments involved a model of mouse T cellular lymphoma EL4, the experimental animals were mice (males) of the B/6 species that were subcutaneously implanted with 10^5 tumor cells on day 0. The conjugates were applied intravenously in a dose of 1×15 mg/kg of DOX equivalent. This single application was carried out on the ninth day after the tumor cells transplantation, i.e. at a time when the tumor was palpable, about approx. 400 mm^3 in size.

For the substance “poly(HPMA-co-MA-AH-NHNH2-co-MA-AH-NHN=DOX-co-MA-AH-SS—)-graft-[(SS)-poly(HPMA-co-MA-AH-NHNH2-MA-AH-NHN=DOX)] [Conjugate 3a]”, the “Weight decrease as a sign of toxicity” value is given as “no weight decrease”.
